Reference: PubChem BioAssay AID504845 (National Center for Advancing Translational Sciences (NCATS), 2011)
The list shows a part of the results, in another mix than the full data. Results filed as inconclusive are left out. The source made the active and inactive calls. The call rests on the fitted dose curve; in most records, active means well fitted inhibition curve with a large enough effect; inconclusive means small, poorly fitted or top-dose-only effect; inactive means no such curve, though single readings can be large or run the other way.
Further: nearly all actives have a fitted effect of over 75% in size.
On the % scale 0 is the no-effect control and ±100 the full control effect.

Sequences of proteins named here, by UniProt entry; tags and fusion partners are left off.
UniProt P49798, whole entry: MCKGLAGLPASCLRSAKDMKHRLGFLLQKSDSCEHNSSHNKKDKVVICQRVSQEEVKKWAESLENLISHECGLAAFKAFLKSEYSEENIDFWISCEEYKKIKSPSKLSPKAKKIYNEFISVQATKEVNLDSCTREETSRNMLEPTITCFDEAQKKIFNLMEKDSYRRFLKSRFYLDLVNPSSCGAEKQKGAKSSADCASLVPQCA

These molecules were tested against Regulator of G-protein signaling 4 (Homo sapiens) (UniProt P49798) (assay: Inhibitors of Regulator of G Protein Signaling (RGS) 4: qHTS). Settings: Transcreener GDP fluorescence polarization, RGS4-accelerated GTP hydrolysis; at 114 µM (top of the series).
From the text: G-protein-coupled receptors (GPCRs) are well-established targets for drug discovery and development. Members of the "regulator of G-protein signaling" (RGS)-protein superfamily have recently emerged as critical modulators of specific GPCR signaling pathways. […] Combining specific RGS domain inhibitors with existing GPCR agonists should potentiate cellular responses and could also increase the specificity of action of existing therapeutics. Small molecule modulators of RGS domain activity should also have clinical utility in inhibiting or potentiating the actions of endogenous GPCR agonists. In particular, the diversity of RGS proteins with highly localized and dynamically regulated distributions in the human brain makes this family of proteins attractive targets for pharmacotherapy of central nervous system (CNS) disorders such as Parkinson's disease, schizophrenia, and anxiety. […]
Two microliters of 500nM (2x working concentration) is dispensed into black medium-binding solid-bottom Kalypsys plates. […] An initial fluorescent polarization read (620 nm/688 nm) is performed on the Envision before the plate is incubated for 90 minutes at 30 deg C at a relative humidity of 80%. The plate is once more centrifuged at 1000 RPM for 15 seconds and another Envision fluorescent polarization (620 nm/688 nm) read is carried out.
For CP(=O)(Nc1cccc(Br)c1)Oc1ccccc1 (stereo unspecified), the activity change, negative = inhibition was inactive: -3.9%.
